Test results as given in US8618162B2 (priority 2007, dated 2013).

The chains behind the UniProt entries cited, without tags or fusion partners. Residues count along the entry.
UniProt Q869C3, 39-737: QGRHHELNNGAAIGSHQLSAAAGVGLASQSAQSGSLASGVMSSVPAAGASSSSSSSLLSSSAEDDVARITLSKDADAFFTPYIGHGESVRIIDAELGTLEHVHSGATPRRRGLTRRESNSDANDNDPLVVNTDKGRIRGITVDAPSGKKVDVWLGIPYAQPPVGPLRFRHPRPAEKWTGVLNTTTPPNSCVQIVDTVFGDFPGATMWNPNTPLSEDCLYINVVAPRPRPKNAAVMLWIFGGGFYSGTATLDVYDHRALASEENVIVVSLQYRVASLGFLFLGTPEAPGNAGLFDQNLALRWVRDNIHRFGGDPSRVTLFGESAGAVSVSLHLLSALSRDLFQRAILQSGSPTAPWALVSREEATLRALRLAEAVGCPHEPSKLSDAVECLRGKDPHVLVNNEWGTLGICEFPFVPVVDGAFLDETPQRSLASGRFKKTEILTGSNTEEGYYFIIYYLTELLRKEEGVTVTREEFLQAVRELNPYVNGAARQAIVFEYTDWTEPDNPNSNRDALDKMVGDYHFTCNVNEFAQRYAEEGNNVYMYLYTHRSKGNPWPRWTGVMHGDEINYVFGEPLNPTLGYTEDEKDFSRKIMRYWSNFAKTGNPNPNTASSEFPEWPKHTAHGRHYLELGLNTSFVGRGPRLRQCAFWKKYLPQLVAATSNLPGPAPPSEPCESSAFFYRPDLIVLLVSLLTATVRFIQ

What was measured:
Anopheles gambiae = assay: Live mosquito contact toxicity, WHO filter paper assay; assay type: in vivo; details: 1 hr exposure to treated filter paper
Ag ace-1S = assay type: biochemical, Anopheles gambiae; details: selectivity, values in parenthesis
Ag hmg AChE = biological target: T1, Ag hmg AChE (Anopheles gambiae, UniProt Q869C3); assay: Ellman AChE inhibition assay, Anopheles gambiae homogenate (Ag hmg); assay type: biochemical; details: selectivity, values in parenthesis
T1 construct: To prepare the Ag homogenate (Ag hmg) 10 Anopheles gambiae mosquitoes were combined; from tissue; host or cells: whole Anopheles gambiae mosquitoes, crude homogenate supernatant

Row | SMILES | Live Mosquito Contact Toxicity MC for 100% lethality at 24 hr (Anopheles gambiae) | IC50 ratio (hAChE/Ag ace-1S) (Ag ace-1S) | IC50 ratio (hAChE/Ag hmg) (Ag hmg AChE)
1 | CNC(=O)Oc1cccc2c1OC(C)(C)C2 [Carbofuran, reference compound] | 0.55 ug/cm^2 | (1.2x) | (2.8x)
2 | CCCCN(CCCC)SN(C)C(=O)Oc1cccc2c1OC(C)(C)C2 [Carbosulfan, reference compound] | 1.1 ug/cm^2 | (0.54x) | (1.4x)
